Source: patent publication US11365199B2, “Pyrazole compounds as modulators of FSHR and uses thereof” (Merck Patent GmbH, priority 2013, dated 2022)

The chains behind the UniProt entries cited, without tags or fusion partners. Residues count along the entry.
UniProt P23945, 18-695 limits assumed: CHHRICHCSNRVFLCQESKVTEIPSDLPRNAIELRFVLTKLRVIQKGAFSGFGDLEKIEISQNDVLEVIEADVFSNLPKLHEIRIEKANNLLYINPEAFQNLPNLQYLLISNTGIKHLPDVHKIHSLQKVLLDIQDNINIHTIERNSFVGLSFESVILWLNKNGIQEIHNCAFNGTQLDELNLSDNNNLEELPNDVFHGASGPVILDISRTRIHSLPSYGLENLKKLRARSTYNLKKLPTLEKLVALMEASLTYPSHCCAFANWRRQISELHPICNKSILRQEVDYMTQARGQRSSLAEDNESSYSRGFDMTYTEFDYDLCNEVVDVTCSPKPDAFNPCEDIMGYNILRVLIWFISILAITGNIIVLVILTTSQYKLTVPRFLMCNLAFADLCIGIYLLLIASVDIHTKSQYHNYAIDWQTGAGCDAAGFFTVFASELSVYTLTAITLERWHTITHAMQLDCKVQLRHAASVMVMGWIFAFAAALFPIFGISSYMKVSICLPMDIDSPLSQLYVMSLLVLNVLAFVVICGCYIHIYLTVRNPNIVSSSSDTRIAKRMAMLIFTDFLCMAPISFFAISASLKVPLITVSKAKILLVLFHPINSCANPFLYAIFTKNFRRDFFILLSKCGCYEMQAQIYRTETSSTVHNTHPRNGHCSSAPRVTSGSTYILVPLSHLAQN

Biological target: FSHR (Homo sapiens, UniProt P23945)
Test: EC50 of cyclic AMP production in CHO FSHR cells + EC20 FSH (Assay A)
Type: cell-based
Conditions: read-out: Assay A: EC50 of cyclic AMP production, cAMP HTRF
Description: EC50 of Cyclic AMP Production in CHO FSHR Cells+EC20 FSH (Assay A)
2500 Cho-FSHR-LUC-1-1-43 cells were plated per well in 5 μl of phenol red free DMEM/F12+1% FBS. Cells were plated in 384 well, solid white low volume plates (Greiner 784075) by Multidrop. Cells were assayed by adding 100 μl of 2×EC20 FSH/IBMX in DMEM/F12+0.1% BSA) by Multidrop to 2 μl of test compound stamped in 384 well plates (compounds are diluted 1:50). The final FSH concentration was […], and the final IBMX concentration was 200 μM. The compound plate map was as follows: Column 1: 2 μl of DMSO; Column 2: 2 μl of DMSO; Columns 3-12 and 13-24: 2 μl of test compound, diluted 1:4 in 100% DMSO, or 2 μl of FSH, diluted 1:4 in DMEM/F12+0.1% BSA. The starting concentration for FSH was 50 nM (final concentration was 0.5 nM). Furthermore, Column 23 contained 2 μl of EC100 FSH reference (100×) (diluted in DMEM/F12+0.1% BSA) at a final concentration of 0.5 nM, and Column 24 contained 2 μl of 1 mM AS707664/2 reference compound 2. 5 μl of compound+EC20 FSH mixture were transferred to cell plates (1:2 dilution into 5 μl of cell media) The plates were incubated at 37° C. for 1 h. […] The plates were read on Envision using the cAMP HTRF—low volume 384 well protocol. The readout was the calculated fluorescence ratio (665 nm/620 nm). […]

EC50: 1000 to 5000 nM
Structure (SMILES): [2H]C([2H])([2H])N(C(=O)c1nn(-c2ccsc2)c2c1COc1cc(OC)c(-c3ccn(C)n3)cc1-2)C(C)(CO)CO
